Like-named read-outs stand apart in the source and are kept apart here.

The conditions of data set [1]: cats.
Data set [2] is described as follows: Excretion in urine and faeces after topical Felpreva (Study 3). The following applies: Study 3, topical Felpreva 0.148 ml/kg.
The mark [3] stands for this setting: single topical Felpreva 0.148 ml/kg (1x), mean.
Setting [4] is: Study 1, single topical Felpreva 0.148 ml/kg (1x), n = 10, plasma, geometric mean (geometric CV%).

In turn, `CC(C)C[C@H]1C(=O)O[C@H](Cc2ccc(N3CCOCC3)cc2)C(=O)N(C)[C@@H](CC(C)C)C(=O)O[C@H](C)C(=O)N(C)[C@@H](CC(C)C)C(=O)O[C@H](Cc2ccc(N3CCOCC3)cc2)C(=O)N(C)[C@@H](CC(C)C)C(=O)O[C@H](C)C(=O)N1C` [Emodepside, emodepside] yielded a plasma elimination half-life in data set [1] (setting [3]) of 14.5 days.
Take `Cn1nc(C(F)(F)C(F)(F)F)c(C(F)(F)F)c1-n1cc(-c2ccc(Cl)c(C(=O)NC3(C#N)CC3)c2)cn1` [Tigolaner, tigolaner]: in data set [1] (setting [4]), the “AUCinf (total plasma exposure)” value is 1566 (32.9) mg∗h/l, the AUClast is on record as 1516 (32.8) mg∗h/l, the “Cmax (peak plasma concentration)” value is reported as 1245.1 (35.6) μg/l and the Tmax was 297.0 (40.5) h. Also, in data set [1] (setting [3]), the Tmax is reported as 12 days and the plasma elimination half-life was 24 days. In data set [2] (cats, 28 days), the “amount found in urine” value is on record as “Neglectable amounts” and the route of clearance entry is given as “mainly cleared via the faeces”. Also, in data set [2] (cats, within 28 days, HPLC-MS/MS), the “cleared via the faeces, share of dose” value came out at 54%. Further, in data set [2] (cats, within 28 days, urine, HPLC-MS/MS), the “renal clearance, share of dose” value is less than 0.5%. In addition, the “administered dose excreted after 28 days, females” value in data set [2] (female cats, mainly via faeces) is on record as roughly 53.2%. In addition, the “administered dose excreted after 28 days, males” value in data set [2] (male cats, mainly via faeces) was “approximately 55.5%”.
